Measurements from patent US11467161B2, “Biomarkers of therapeutic responsiveness” (Meso Scale Technologies, LLC., priority 2013, dated 2022).

System: SKMEL5 (active GSK3beta) xenograft
Test: Biomarker levels in SKMEL5 GSK3β+ (active GSK3beta) melanoma xenograft tumor extracts (MSD multiplex immunoassay)
Format: in vivo, mice
Conditions: SKMEL5 GSK3β+ tumor extract, sorafenib (+), mean
Protocol: A panel of biomarkers was measured in Melanoma and RCC xenograft tissue extracts from mice, described in Table 4. Xenografts were generated using the listed melanoma and RCC cell lines, and tumors harvested and extracted following the indicated treatments. SKMEL5 cells were used with or without transfection to express constitutively active GSK3β. A375 cells were used with or without transfection to express GSK3β specific shRNA under a doxycycline-controlled promoter.
Multiplex immunoassay kits were used for detection of total and/or phosphorylated biomarkers (supplied by Meso Scale Discovery, a division of Meso Scale Diagnostics, LLC, Rockville, Md.). Levels of each biomarker were determined by calibration of the assays with were either purified calibrator proteins or using control cell lysates from appropriately treated cultured cell lines (e.g., cells subjected to conditions known to induce or reduce levels of a specific biomarker). Calibration curves were derived by testing serial dilutions of the calibrator lysates or purified proteins. Levels of biomarkers in test samples were back-calculated from the calibration curves and were expressed in terms of wt. (or arbitrary Units for phospho-protein markers) of protein per weight of tissue extract (for purified calibrators) or in terms of weight of crude control lysate protein per well (for lysate calibrators). […]

In the case of `CNC(=O)c1cc(Oc2ccc(NC(=O)Nc3ccc(Cl)c(C(F)(F)F)c3)cc2)ccn1` [sorafenib], the Wnt3A is reported as 11.4 pg/ug pr.
